According to US20060079453A1, “Hla binding peptides and their uses” (priority 2002, published 2006):
Like-named read-outs stand apart in the source and are kept apart here.

Sequences of proteins named here, by UniProt entry; tags and fusion partners are left off. Residues count along the entry.
UniProt P79483, 30-266: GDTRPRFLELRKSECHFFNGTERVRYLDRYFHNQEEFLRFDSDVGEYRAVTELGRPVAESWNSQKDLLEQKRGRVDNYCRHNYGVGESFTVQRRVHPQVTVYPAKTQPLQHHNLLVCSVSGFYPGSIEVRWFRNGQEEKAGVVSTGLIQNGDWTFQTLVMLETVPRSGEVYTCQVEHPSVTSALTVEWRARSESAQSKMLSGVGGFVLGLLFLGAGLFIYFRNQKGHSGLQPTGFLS

Assays:
HLA-A*0301 = HLA-A*0301 (Homo sapiens, UniProt P04439); test: biochemical; format: binding
HLA-DR DRB1*0405 (DR4) = HLA-DR DRB1*0405 (DR4) (Homo sapiens, UniProt P01903+P01911, A100R/A169T/D86S/F76Y/I96L/K127E/L162R/M171V/N62H/P40V/Q125Y/R42H/S133A/S149N/S66Y/V115G/V209L/W38E); test: biochemical; format: binding; conditions: DRB1 *0405
HLA-DR DRB1*1101 (DR11) = HLA-DR DRB1*1101 (DR11) (Homo sapiens, UniProt P01903+P01911, A100R/A169T/A87E/I96F/K41T/L162R/M171V/P40S/Q125H/Q178H/Q39Y/Q99D/R42S/S66Y/T262R/V115G/W38E); test: biochemical; format: binding; conditions: DRB1 *1101
HLA-A*2301 = HLA-A*2301 (Homo sapiens, UniProt P04439, D101N/D140Y/D185E/E176V/E190D/F33S/G103R/G107R/H175R/I119L/I121M/I306V/K168Q/K335N/L105A/L300P/N151K/N90K/P307H/Q86E/Q94H/R106L/R138H/R89G/T104I/T345S/V100E/W191G/Y123F); test: biochemical; format: binding
HLA-DR DRB3*0101 (DR52) = HLA-DR DRB3*0101 (DR52) (Homo sapiens, UniProt P01903+P79483); test: biochemical; format: binding
HLA-DR DRB1*0701 (DR7) = HLA-DR DRB1*0701 (DR7) (Homo sapiens, UniProt P01903+P01911, A100R/A102G/A103Q/D57E/D86V/E43K/F76Y/K127E/L162R/M171V/P40G/Q125H/Q99D/R33Q/R42Y/R54Q/S133A/S66F/T210M/V115G/Y107V/Y59L/Y89S); test: biochemical; format: binding; conditions: DRB1 *0701
HLA-DR DRB1*0401 (DR4) = HLA-DR DRB1*0401 (DR4) (Homo sapiens, UniProt P01903+P01911, A100K/A169T/F76Y/I96L/K127E/L162R/M171V/N62H/P40V/Q125Y/R42H/S133A/S149N/S66Y/V115G/V209L/W38E); test: biochemical; format: binding; conditions: DRB1 *0401
HLA-DR DRB1*0101 (DR1) = HLA-DR DRB1*0101 (DR1) (Homo sapiens, UniProt P01903+P01911, A100R/D57E/F55L/F60I/F76Y/I96L/L162R/M171V/P40L/Q125E/R42F/V115G/Y59C); test: biochemical; format: binding; conditions: DRB1 *0101
HLA-DR DRB1*0901 (DR9) = HLA-DR DRB1*0901 (DR9) (Homo sapiens, UniProt P01903+P01911, A100R/A103E/D57H/D86V/F55Y/F60I/F76Y/I96F/K127E/L162R/M171V/P40D/Q125H/Q99R/R33Q/R42F/S133A/S66N/T210M/V115G/W38K/Y107V/Y59G/Y89S); test: biochemical; format: binding; conditions: DRB1 *0901
HLA-DR DRB4*0101 (DR53) = HLA-DR DRB4*0101 (DR53) (Homo sapiens, UniProt P01903+P13762, G164S); test: biochemical; format: binding; conditions: DRB4 *0101
HLA-DR DRB1*1302 (DR13) = HLA-DR DRB1*1302 (DR13) (Homo sapiens, UniProt P01903+P01911, A100E/A169T/K41T/L162R/M171V/P40S/Q125H/Q178H/Q39Y/Q99D/R42S/S66N/T262R/V115G/W38E/Y61H); test: biochemical; format: binding; conditions: DRBI *1302
HLA-DR DRB1*0301 (DR3) = HLA-DR DRB1*0301 (DR3) (Homo sapiens, UniProt P01903+P01911, A100K/A102G/A103R/A169T/F55Y/I96L/K41T/L162R/M171V/P40S/Q125H/Q178H/Q39Y/R42S/S66N/T106N/T262R/W38E/Y61H); test: biochemical; format: binding
HLA-DR DRB1*1501 (DR15) = HLA-DR DRB1*1501 (DR15) (Homo sapiens, UniProt P01903+P01911); test: biochemical; format: binding; conditions: DRBI *1501
HLA-DR DRB1*0802 (DR8) = HLA-DR DRB1*0802 (DR8) (Homo sapiens, UniProt P01903+P01911, A100R/A103L/A169T/F76Y/H45Y/I96F/K41T/L162R/M171V/P40S/Q125H/Q178H/Q39Y/Q99D/R218S/R42G/S66Y/V115G/W38E); test: biochemical; format: binding
HLA-A*3002 = HLA-A*3002 (Homo sapiens, UniProt P04439, D101N/D140H/D185E/E176R/F33S/G80R/H175R/K168Q/Q94H/R138E/R41S/V100E); format: binding; conditions: read-out: A*3002 binding affinity (IC50)
HLA-A*2902 = HLA-A*2902 (Homo sapiens, UniProt P04439, A270S/D101N/D185E/E176V/E277Q/E87Q/F33T/G231S/H175R/I121M/I218V/I322F/K168Q/L300P/L318F/M331R/P208A/P217A/Q86L/T323A/T345S/V100A/V358M); test: MHC molecular binding / Capture assay, IC50: A*2902; conditions: read-out: A*2902 binding affinity (IC50)
[1] = read-out: A*0301 binding affinity (expressed as an IC50)

CC[C@H](C)[C@H](NC(=O)[C@@H](NC(=O)[C@H](CC(C)C)NC(=O)[C@H](CC(=O)O)NC(=O)[C@@H](NC(=O)[C@H](Cc1ccccc1)NC(=O)[C@H](C)NC(=O)[C@@H](N)Cc1ccccc1)[C@@H](C)O)[C@@H](C)O)C(=O)N[C@H](C(=O)N[C@@H](Cc1ccc(O)cc1)C(=O)O)C(C)C
IC50 (HLA-A*0301): 40.3 µM

C[C@@H](O)[C@H](NC(=O)CN)C(=O)N[C@@H](CCCNC(=N)N)C(=O)N[C@@H](CCC(N)=O)C(=O)N[C@H](C(=O)N[C@@H](CCCNC(=N)N)C(=O)N[C@@H](CCCCN)C(=O)N[C@@H](CC(N)=O)C(=O)N[C@@H](CCCCN)C(=O)O)[C@@H](C)O
IC50 (HLA-A*0301): 0.198 µM

CC[C@H](C)[C@H](N)C(=O)N[C@@H](C)C(=O)N[C@@H](CC(C)C)C(=O)N[C@@H](CC(C)C)C(=O)N[C@H](C(=O)N[C@H](C(=O)N1CCC[C@H]1C(=O)N1CCC[C@H]1C(=O)N[C@@H](CCCCN)C(=O)O)[C@@H](C)CC)[C@@H](C)CC
IC50 (HLA-A*0301): 1.24 µM

CC[C@H](C)[C@H](NC(=O)[C@H](CC(=O)O)NC(=O)[C@H](CCC(N)=O)NC(=O)[C@H](CC(C)C)NC(=O)[C@@H](NC(=O)[C@H](C)NC(=O)[C@@H](N)CCCCN)[C@@H](C)O)C(=O)N[C@H](C(=O)N[C@@H](CC(C)C)C(=O)N[C@@H](Cc1c[nH]cn1)C(=O)N[C@@H](CC(C)C)C(=O)N[C@@H](CCC(=O)O)C(=O)N1CCC[C@H]1C(=O)N[C@@H](CCC(N)=O)C(=O)N[C@@H](CC(N)=O)C(=O)O)C(C)C
IC50 (HLA-DR DRB1*0405 (DR4)): 1.17 µM

CC(C)C[C@H](NC(=O)[C@H](CCCCN)NC(=O)[C@H](CC(C)C)NC(=O)[C@@H](N)CCCCN)C(=O)N[C@@H](Cc1ccc(O)cc1)C(=O)N[C@H](C(=O)NCC(=O)N[C@@H](CCC(=O)O)C(=O)N[C@@H](C)C(=O)N[C@@H](CS)C(=O)N[C@@H](CCCNC(=N)N)C(=O)N[C@H](C(=O)NCC(=O)N[C@@H](CC(=O)O)C(=O)N[C@@H](CCCNC(=N)N)C(=O)O)[C@@H](C)O)[C@@H](C)O
IC50 (HLA-DR DRB1*1101 (DR11)): > 17.2 µM
IC50 (HLA-DR DRB1*0405 (DR4)): 36.3 µM

CC(C)C[C@H](NC(=O)[C@@H](NC(=O)[C@@H](NC(=O)[C@@H](NC(=O)[C@@H](NC(=O)[C@H](C)NC(=O)[C@H](CCC(N)=O)NC(=O)[C@H](Cc1ccc(O)cc1)NC(=O)[C@@H](N)CCCCN)C(C)C)[C@@H](C)O)[C@@H](C)O)[C@@H](C)O)C(=O)O
IC50 (HLA-A*2301): 0.016 µM

CC[C@H](C)[C@H](NC(=O)[C@H](Cc1ccc(O)cc1)NC(=O)[C@H](C)NC(=O)[C@H](CCC(=O)O)NC(=O)[C@H](CCC(=O)O)NC(=O)[C@H](Cc1ccccc1)NC(=O)[C@H](CCC(=O)O)NC(=O)[C@@H](N)CCC(N)=O)C(=O)N1CCC[C@H]1C(=O)N[C@@H](CCCCN)C(=O)N[C@@H](CCC(=O)O)C(=O)N[C@@H](CCC(N)=O)C(=O)N[C@@H](CCCCN)C(=O)N[C@@H](Cc1ccc(O)cc1)C(=O)N[C@@H](CO)C(=O)O
IC50 (HLA-DR DRB3*0101 (DR52)): > 54.6 µM
IC50 (HLA-DR DRB1*0701 (DR7)): 31.3 µM
IC50 (HLA-DR DRB1*0401 (DR4)): > 21.3 µM
IC50 (HLA-DR DRB1*0101 (DR1)): > 20.5 µM
IC50 (HLA-DR DRB1*0901 (DR9)): > 59.5 µM
IC50 (HLA-DR DRB4*0101 (DR53)): > 41.1 µM
IC50 (HLA-DR DRB1*1302 (DR13)): > 15.8 µM
IC50 (HLA-DR DRB1*0301 (DR3)): > 172 µM
IC50 (HLA-DR DRB1*1501 (DR15)): > 15.6 µM
IC50 (HLA-DR DRB1*0802 (DR8)): > 33.3 µM

CC(C)[C@H](NC(=O)[C@H](CCC(=O)O)NC(=O)[C@H](Cc1ccccc1)NC(=O)[C@@H](N)CCCNC(=N)N)C(=O)N[C@@H](Cc1ccc(O)cc1)C(=O)N[C@@H](CCC(N)=O)C(=O)N[C@@H](Cc1ccccc1)C(=O)N[C@@H](C)C(=O)N[C@@H](Cc1ccccc1)C(=O)N[C@@H](CCCCN)C(=O)O
IC50 (HLA-A*0301): 0.038 µM

CC[C@H](C)[C@H](NC(=O)[C@@H](N)CCCNC(=N)N)C(=O)N[C@@H](CO)C(=O)NCC(=O)N[C@H](C(=O)N[C@@H](CC(=O)O)C(=O)N[C@@H](CCCNC(=N)N)C(=O)N[C@@H](Cc1ccc(O)cc1)C(=O)N[C@@H](Cc1ccc(O)cc1)C(=O)O)C(C)C
IC50 (HLA-A*2301): > 49 µM

CC[C@H](C)[C@H](NC(=O)[C@H](CCC(=O)O)NC(=O)[C@H](CCC(=O)O)NC(=O)[C@@H]1CCCN1C(=O)[C@@H](NC(=O)[C@H](CC(=O)O)NC(=O)[C@H](Cc1ccccc1)NC(=O)[C@H](CC(N)=O)NC(=O)[C@@H](N)CCCNC(=N)N)[C@@H](C)CC)C(=O)N[C@@H](CCCCN)C(=O)N[C@@H](CCC(N)=O)C(=O)N[C@@H](CC(C)C)C(=O)N[C@@H](CCC(N)=O)C(=O)N[C@@H](CCC(N)=O)C(=O)N[C@@H](Cc1ccccc1)C(=O)O
IC50 (HLA-DR DRB1*0405 (DR4)): > 114 µM
IC50 (HLA-DR DRB1*0701 (DR7)): 47.9 µM
IC50 (HLA-DR DRB1*0901 (DR9)): > 77.3 µM
IC50 (HLA-DR DRB1*0802 (DR8)): > 144 µM

ATAGDGXXEXRK
IC50 (HLA-A*0301; read-out: A*0301 binding affinity (IC50)): 0.184 µM

ATGDKCLKFY
IC50 (HLA-A*0301; [1]): 0.194 µM

AVCRVGLLFY
IC50 (HLA-A*0301; [1]): 0.077 µM

AYKDLCLVY
IC50 (HLA-A*2301; read-out: A*2301 binding affinity (IC50)): 3.04 µM
IC50 (HLA-A*3002): 0.029 µM
IC50 (HLA-A*2902): 5.21 µM
